Measurements reported in paper PMC8452626.

Target: GST-tagged mDia2 FH1-FH2 formin construct (GST-mDia2-FF) (UniProt Q9Z207)
Test: pull-down; GST-mDia2-FF (0.5 uM dimer) incubated 1 h at RT with 5 uM Mox- or unoxidized actin and 15 uM profilin in LT-KMEH7 buffer (pH 7, 50 mM KCl, latrunculin A), then glutathione-Sepharose beads 2-2.5 h at 4 C; Coomassie-stained gels quantified; stoichiometries per 1 formin dimer after accounting for nonspecific binding (GST) and formin amounts

| stoichiometry N (actin per 1 formin dimer) | stoichiometry N (profilin per 1 formin dimer) | Substance |
| --- | --- | --- |
| 0.81 | 1.03 | unoxidized actin-profilin complex (from UniProt P68135 1-377; P07737 1-140) |
| 0.62 | 0.58 | Mox-actin-profilin complex (from UniProt P68135 1-377; P07737 1-140) |
